We go through one compound from ChEMBL document CHEMBL1142043, “Potent and selective [2-imidazol-1-yl-2-(6-alkoxy-naphthalen-2-yl)-1-methyl-ethyl]-dimethyl-amines as retinoic acid metabolic blocking agents (RAMBAs)” (Bioorg Med Chem Lett, 2005).

The target of this test is T1, Cytochrome P450 26A1 (Homo sapiens, UniProt O43174).
T1 sequence (O43174 whole entry): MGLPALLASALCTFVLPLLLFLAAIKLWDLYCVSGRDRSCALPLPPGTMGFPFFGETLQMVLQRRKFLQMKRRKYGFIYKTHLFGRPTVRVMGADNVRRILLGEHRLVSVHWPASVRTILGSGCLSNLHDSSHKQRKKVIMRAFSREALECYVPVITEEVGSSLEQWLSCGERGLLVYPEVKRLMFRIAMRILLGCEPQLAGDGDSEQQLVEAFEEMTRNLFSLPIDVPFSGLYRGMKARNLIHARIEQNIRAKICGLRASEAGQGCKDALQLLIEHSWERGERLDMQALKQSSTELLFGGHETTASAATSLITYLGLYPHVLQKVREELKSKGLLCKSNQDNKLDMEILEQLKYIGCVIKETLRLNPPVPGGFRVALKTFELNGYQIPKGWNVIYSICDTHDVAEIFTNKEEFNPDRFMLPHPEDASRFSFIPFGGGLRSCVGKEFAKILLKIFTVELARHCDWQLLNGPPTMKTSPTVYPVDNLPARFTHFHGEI
Kind of test: Potency towards cytochrome P 450 26 enzyme activity.

One may read the IC50 as the midpoint of a concentration-inhibition curve. High values mean weaker potency in that assay, low ones greater potency in that assay.

`Clc1cccc(C(c2ccc3[nH]cnc3c2)n2ccnc2)c1` (stereo unspecified) [LIAROZOLE] displayed an IC50 of 6 µM.
